The entries are a selection whose mix differs from that of the whole data set. Calls of active or inactive are those of the source. The call rests on the fitted dose curve; in most records, active means well fitted inhibition curve with a large enough effect; inconclusive means small, poorly fitted or top-dose-only effect; inactive means no such curve, though single readings can be large or run the other way.

By UniProt entry, the sequences of proteins in these tests, tags left out.
UniProt O15296, whole entry: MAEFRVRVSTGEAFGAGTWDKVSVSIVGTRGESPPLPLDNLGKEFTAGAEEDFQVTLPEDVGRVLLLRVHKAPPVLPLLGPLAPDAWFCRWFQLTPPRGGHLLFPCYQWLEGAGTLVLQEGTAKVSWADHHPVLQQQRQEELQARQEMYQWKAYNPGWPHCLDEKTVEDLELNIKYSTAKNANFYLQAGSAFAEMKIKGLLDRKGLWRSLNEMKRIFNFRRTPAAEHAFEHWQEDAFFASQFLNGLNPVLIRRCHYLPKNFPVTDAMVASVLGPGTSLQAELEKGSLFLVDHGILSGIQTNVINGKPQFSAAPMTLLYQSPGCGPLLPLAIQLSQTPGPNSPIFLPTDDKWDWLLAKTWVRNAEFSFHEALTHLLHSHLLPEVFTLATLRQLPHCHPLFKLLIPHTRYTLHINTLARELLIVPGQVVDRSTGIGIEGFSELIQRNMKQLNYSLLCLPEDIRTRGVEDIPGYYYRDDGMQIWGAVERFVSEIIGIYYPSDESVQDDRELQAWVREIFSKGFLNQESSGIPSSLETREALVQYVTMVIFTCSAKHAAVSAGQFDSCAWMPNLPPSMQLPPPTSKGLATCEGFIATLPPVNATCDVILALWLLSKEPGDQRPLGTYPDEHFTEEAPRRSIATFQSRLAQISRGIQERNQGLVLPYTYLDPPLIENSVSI

Among the data in PubChem BioAssay AID881 (National Center for Advancing Translational Sciences (NCATS), 2007) are activity change, negative = inhibition values, retold here.
On the % scale 0 is the no-effect control and ±100 the full control effect.

This assay deals with Polyunsaturated fatty acid lipoxygenase ALOX15B (Homo sapiens) (UniProt O15296). The assay is described as follows: qHTS Assay for Inhibitors of 15-hLO-2 (15-human lipoxygenase 2). Further: nearly all actives have a fitted effect of over 60% in size. The settings on record: purified 15hLO-2, xylenol orange hydroperoxide absorbance; at 57.1 µM unless noted. From the text:
Assay Overview: NIH Molecular Libraries Screening Centers Network [MLSCN] NIH Chemical Genomics Center [NCGC] MLSCN Grant: MH081283-01A1 PI Name: Holman, T.R., University of California, Santa Cruz Human lipoxygenase 15hLO-2 is a member of the closely related lipoxygenase family of enzymes which catalyze the site-specific oxidation of arachidonic acid to various hormone precursor molecules and as such is a candidate for drug development in a variety of disease areas, such as cancer and inflammation. Inhibition of 15hLO-2 activity was screened by utilizing arachidonic acid as a substrate. The extent of hydroperoxide product formation was measured by a secondary chromogenic reaction in which xylenol orange (XO, Sigma-Aldrich, cat. number 39,818-7) reacts with the ferric ions produced from the reaction between the hydroperoxide and ferrous ions. The Fe(III)-XO complex is characterized with red-shifted absorbance at 560 nm. A purified preparation of human 15hLO-2 was supplied by Professor Ted Holman, University of California, Santa Cruz.
Assay Protocol: Buffer: 25 mM Hepes pH 7.5, 0.01% Triton X-100. Reagents/Controls: Buffer in columns 3 and 4 as negative control (no enzyme). Substrate solution: 45 uM arachidonic acid (Sigma-Aldrich, St. Louis, MO) final concentration dispensed throughout the plate. Enzyme: 50 nM 15hLO-2 final concentration in columns 1, 2, 5-48. Column 1 is neutral (100% activity). Column 2 contained pin-transferred titration of NDGA (nordihidroguaiaretic acid, Sigma-Aldrich, N 5023, top concentration 10 mM in DMSO, then 1:2 dilution in duplicate). (Dilution factor: 23 nL into 4 uL.) Chromogenic detection reagent (divalent iron/xylenol orange, Fe-XO): 200 uM xylenol orange plus 300 uM ferrous ammonium sulfate prepared freshly in 50 mM sulfuric acid. Assay Steps: Three uL of enzyme were dispensed to 1536-well Greiner black clear bottom plates. Compounds and controls (23 nL) were transferred via Kalypsys PinTool. The plates were incubated for 15 min at room temperature, and then 1 uL of substrate solution was added to start the reaction. After room temperature incubation for 90 minutes, 4 uL of Fe-XO solution was added to each well followed by a short spin (1000 rpm, 15 sec) and the plates were then incubated for 30 min. The absorbance at 405 and 573 nm were measured using ViewLux (Perkin-Elmer) High-throughput CCD imager and absorbance protocol settings. The 573-to-405 absorbance ratio was used to compute reaction progress.
Take `c1ccc(CN2CCC(Nc3ccccc3)CC2)cc1`: the activity change, negative = inhibition is inactive: -0.543%. As to `ClCCOP(OCCCl)OCCCl`, the activity change, negative = inhibition was inactive: -1.1%.

For `N/C(=N\O)c1c(N)no[n+]1[O-]`, the activity change, negative = inhibition is inactive: 6.14%. As for `CCOc1ncccc1C(=O)NCC1(N2CCOCC2)CCCCC1`, the activity change, negative = inhibition is inactive: 4.37%. As for `O=C(O)C1(Nc2ccccc2)CCN(Cc2ccccc2)CC1`, the figure is inactive: -8.82% [at 11.4 µM]. With `CCC(CO)(C(=O)OC1CN2CCC1CC2)c1ccccc1` (centres undefined), the activity change, negative = inhibition was inactive: -0.327%. As for `Fc1ccccc1NC1CCN(Cc2ccccc2)CC1`, the figure is inactive: -13.8%; as for `COc1ccc(NC2CCN(CCc3ccccc3)CC2)c(OC)c1`, inactive: 0.422%; as for `O=C(NCC1(N2CCOCC2)CCCCC1)c1cc2ccccc2o1`, inactive: 1.64%.

Turning to `O=C(OC1CN2CCC1CC2)C1c2ccccc2Oc2ccccc21` (centres undefined), the activity change, negative = inhibition was inactive: 23.2%. Next, `CCOP(=O)(Cl)Cl`: inactive: 0.69%; `NC1CCCCC1.NP(=O)(O)N(CCCl)CCCl`: inactive: 2.57% [at 11.4 µM]; `N#CC1(Nc2ccccc2)CCN(CCc2ccccc2)CC1`: inactive: 23.6%. On to `O=C(NCC1(N2CCOCC2)CCCCC1)c1cc(=O)[nH]c2ccccc12`, for which the activity change, negative = inhibition is inactive: 3.13%.
